Source: patent US7422892B2, “Enzyme-based device for environmental monitoring” (dated 2008)

Chains of the proteins cited; added tags and fusions are not shown. Residues count along the entry.
UniProt P00784, 134-345 limits assumed: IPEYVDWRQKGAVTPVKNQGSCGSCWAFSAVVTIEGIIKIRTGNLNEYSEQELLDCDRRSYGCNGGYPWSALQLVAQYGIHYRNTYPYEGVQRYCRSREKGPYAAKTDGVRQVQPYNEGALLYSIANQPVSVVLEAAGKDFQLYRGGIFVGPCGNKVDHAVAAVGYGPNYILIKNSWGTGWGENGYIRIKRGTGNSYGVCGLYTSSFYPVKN

Columns and labels:
papain = papain (Carica papaya, UniProt P00784); assay: Continuous monitoring for iodoacetamide in water (papain polymer, effluent pH/colour); conditions: 10 ppm in sample stream; papain polymer 100 units per gram; baseline below pH 4.9 (yellow); color change yellow to purple
[1] = target: organophosphorus hydrolase (Brevundimonas diminuta, UniProt P0A434); assay: Continuous monitoring for paraoxon in water by catalytic hydrolysis (enzyme polymer, effluent pH); conditions: 0.5 mM in inlet water; 100 mg polymer, 50 mg organophosphorus hydrolase per gram; baseline pH 7.8

SMILES	effluent pH after inhibitor in the sample stream (papain)	effluent pH after addition of analyte to inlet water stream [1]
NC(=O)CI	7.0	–
CCOP(=O)(OCC)Oc1ccc([N+](=O)[O-])cc1	–	5.8
